# Measured values from patent US11773129B2, “Methods of preventing or treating atherosclerosis with inhibitors of specific isoenzymes of human neuraminidase” (THE GOVERNORS OF THE UNIVERSITY OF ALBERTA, priority 2017, dated 2023).
# Tested on: NEU1, NEU2, NEU3, NEU4
# Experiment: Isoenzyme specificity/selectivity from 4MU-NANA IC50 across the four human neuraminidases
# Type: biochemical
# Details: isoenzyme(s) the compound is specific for; dual (bispecific) when ratio of IC50 is about 3 or less
row,Target,SMILES
1,NEU3/ NEU4,"[N-]=[N+]=NCC(=O)N[C@@H]1C(O)C=C(C(=O)O)OC1C(O)C(O)CO (stereo partly drawn) [compound 40, 5-(N-2-azidoacetyl)-2,3,5-trideoxy-D-glycero-D-galacto-2-nonulopyranosonic acid]"
2,NEU1,"CCCC(=O)NCC(O)C(O)C1OC(C(=O)O)=CC(O)[C@H]1NC(C)=O (stereo partly drawn) [compound 49, 5-Acetamido-9-butyramido-2,6-anhydro-3,5-dideoxy-D-glycero-D-galacto-non-2-enonic acid]"
3,NEU1,"CC(=O)N[C@@H]1C(O)C=C(C(=O)O)OC1C(O)C(O)CNC(=O)CC(C)C (stereo partly drawn) [compound 54, 5-Acetamido-9-(3-methylbutanamido)-2,6-anhydro-3,5-dideoxy-D-glycero-D-galacto-non-2-enonic acid]"

row,SMILES,Target
1,"CCCCC(=O)NCC(O)C(O)C1OC(C(=O)O)=CC(O)[C@H]1NC(C)=O (stereo partly shown) [compound 50, C9-BA-DANA]",NEU1
